The text below walks through data of article PMC8095719 (Science translational medicine, 2020).

The test concerns ERK1/2 phosphorylation. To be noted: wild-type and Fmr1^−/y hippocampal slices, CDPPB then DHPG.

In the case of `CC[C@]1(c2ccccc2)C2=CNNC2=NC2=C1C(=O)CC(C)(C)C2` [BRD0705, (S)-4-ethyl-7,7-dimethyl-4-phenyl-1,2,4,6,7,8-hexahydro-5H-pyrazolo[3,4-b]quinolin-5-one], the “ERK1/2 phosphorylation after mGluR5 activation” value is “no decrease in ERK phosphorylation”.
